{
  "source": "ChEMBL document CHEMBL1137340",
  "about": "“Binding of 13-amidohuprines to acetylcholinesterase: exploring the ligand-induced conformational change of the gly117-gly118 peptide bond in the oxyanion hole” (J Med Chem, 2006)",
  "biological_target": "Acetylcholinesterase (Bos taurus, UniProt P23795)",
  "data": [
    {"smiles": "CCC1=C[C@@H]2Cc3nc4cc(F)ccc4c(N)c3[C@H](C1)C2", "values": [
      {"measurement": "IC50", "value": 6.73, "unit": "nM"}
    ]}
  ]
}
